This passage reports Ki results from patent US9890152B2 (Genentech, Inc., priority 2012, dated 2018).

Chains of the proteins cited; added tags and fusions are not shown. Residues count along the entry.
UniProt P00533, 25-1210 T790M/L858R limits assumed: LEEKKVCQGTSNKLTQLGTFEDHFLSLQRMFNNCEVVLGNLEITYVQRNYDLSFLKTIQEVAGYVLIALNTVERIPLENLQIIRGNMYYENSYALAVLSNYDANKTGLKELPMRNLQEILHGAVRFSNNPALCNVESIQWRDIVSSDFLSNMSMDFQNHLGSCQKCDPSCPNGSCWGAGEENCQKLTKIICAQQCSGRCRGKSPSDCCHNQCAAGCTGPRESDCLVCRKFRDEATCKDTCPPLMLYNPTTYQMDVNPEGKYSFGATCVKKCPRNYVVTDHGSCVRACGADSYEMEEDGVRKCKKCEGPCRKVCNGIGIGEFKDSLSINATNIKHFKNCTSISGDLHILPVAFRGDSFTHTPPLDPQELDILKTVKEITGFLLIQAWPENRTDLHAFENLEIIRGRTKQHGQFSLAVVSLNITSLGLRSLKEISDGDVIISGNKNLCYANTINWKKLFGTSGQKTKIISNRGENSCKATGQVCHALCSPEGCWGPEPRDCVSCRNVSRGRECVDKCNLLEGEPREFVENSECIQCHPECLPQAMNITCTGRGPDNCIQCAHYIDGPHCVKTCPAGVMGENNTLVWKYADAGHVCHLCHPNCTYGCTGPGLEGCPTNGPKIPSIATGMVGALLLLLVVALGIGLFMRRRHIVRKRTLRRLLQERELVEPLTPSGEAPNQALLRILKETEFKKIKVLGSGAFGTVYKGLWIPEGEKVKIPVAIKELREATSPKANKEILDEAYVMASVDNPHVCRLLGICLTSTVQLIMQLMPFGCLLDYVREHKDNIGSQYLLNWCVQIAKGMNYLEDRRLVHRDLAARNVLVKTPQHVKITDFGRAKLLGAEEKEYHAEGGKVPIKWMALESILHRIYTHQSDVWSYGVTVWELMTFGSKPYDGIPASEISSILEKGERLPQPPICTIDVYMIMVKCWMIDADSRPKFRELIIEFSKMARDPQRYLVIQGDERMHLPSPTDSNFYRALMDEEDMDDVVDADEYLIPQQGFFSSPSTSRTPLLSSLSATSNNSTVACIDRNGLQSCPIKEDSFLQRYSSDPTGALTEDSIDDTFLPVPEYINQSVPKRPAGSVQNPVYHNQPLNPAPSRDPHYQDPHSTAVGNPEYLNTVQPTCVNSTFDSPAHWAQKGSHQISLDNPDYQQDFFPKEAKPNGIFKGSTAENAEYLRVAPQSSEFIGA

Structures are written as SMILES.

The assay has as its target EGFR T790M L858R (Homo sapiens, UniProt P00533, L858R/T790M). As to the kind of experiment: biochemical. Conditions: EGFR(T790M/L858R) Ki (μM).
[1] abbreviates: 5 μM ATP, 30 min, room temperature, apparent Ki (Morrison) converted by Cheng-Prusoff, Km of ATP 1.3 μM.

As to `Cc1nc2cnc(Nc3ccnc(N4CC[C@H](O)[C@H](F)C4)n3)cc2n1C(C)C` (racemic) [Example 505, (±)-3-Fluoro-1-(4-((1-isopropyl-2-methyl-1H-imidazo [4,5-c]pyridin-6-yl)amino)pyrimidin-2-yl)piperidin-4-ol], the Ki under setting [1] was 0.0116 µM. Consider `Cc1nc2cnc(Nc3ccnc(N4CCC(O)C(F)(F)C4)n3)cc2n1C(C)C` (racemic) [Example 507, (±)-3,3-Difluoro-1-(4-((1-isopropyl-2-methyl-1H-imidazo[4,5-c]pyridin-6-yl)amino)pyrimidin-2-yl)piperidin-4-ol], for which the Ki under setting [1] amounted to 0.00615 µM. For the compound `CO[C@@H]1CCN(c2nccc(Nc3cc4c(cn3)nc(C)n4C(C)C)n2)C[C@H]1O` (racemic) [Example 508, (±)-1-(4-((1-Isopropyl-2-methyl-1H-imidazo[4,5-c]pyridin-6-yl)amino)pyrimidin-2-yl)-4-methoxypiperidin-3-ol], under setting [1], the Ki is 0.0242 µM. For the compound `CO[C@H]1CN(c2nccc(Nc3cc4c(cn3)nc(C)n4C(C)C)n2)CC[C@@H]1O` (racemic) [Example 509, (±)-1-(4-((1-Isopropyl-2-methyl-1H-imidazo[4,5-c]pyridin-6-yl)amino)pyrimidin-2-yl)-3-methoxypiperidin-4-ol], under setting [1], the Ki worked out at 0.0634 µM. As to `CC(C)n1c(CO)nc2cnc(Nc3ccnc(N4CC[C@H](O)[C@H](F)C4)n3)cc21` (racemic) [Example 510, (±)-3-Fluoro-1-(4-((2-(hydroxymethyl)-1-isopropyl-1H-imidazo [4,5-c]pyridin-6-yl)amino)pyrimidin-2-yl)piperidin-4-ol], under setting [1], the Ki was found to be 0.0135 µM. Still for that read-out and setting: in the case of `CO[C@H]1CCN(c2nccc(Nc3cc4c(cn3)nc(C)n4C(C)C)n2)[C@@H](C)C1` (racemic) [Example 511, (±)-1-Isopropyl-N-(2-(4-methoxy-2-methylpiperidin-1-yl)pyrimidin-4-yl)-2-methyl-1H-imidazo[4,5-c]pyridin-6-amine] it was 0.011 µM. In turn, `CO[C@H]1CCN(c2nccc(Nc3cc4c(cn3)nc(C)n4C(C)C)n2)C[C@H]1F` (racemic) [Example 524, (±)-[2-((cis)-3-Fluoro-4-methoxypiperidin-1-yl)pyrimidin-4-yl]-(1-isopropyl-2-methyl-1H-imidazo[4,5-c]pyridin-6-yl)amine] yielded a Ki of 0.00273 µM. As for `CO[C@H]1CCN(c2nccc(Nc3cc4c(cn3)nc(C)n4C(C)C)n2)C[C@@H]1F` (racemic) [Example 525, (±)-[2-((trans)-3-Fluoro-4-methoxypiperidin-1-yl)pyrimidin-4-yl]-(1-isopropyl-2-methyl-1H-imidazo[4,5-c]pyridin-6-yl)amine], under setting [1], the Ki came to 0.0426 µM. For `CO[C@H]1CCN(c2nccc(Nc3cc4c(cn3)nc(CO)n4C(C)C)n2)C[C@H]1F` (racemic) [Example 526, (±)-{6-[2-((cis)-3-Fluoro-4-methoxypiperidin-1-yl)pyrimidin-4-ylamino]-1-isopropyl-1H-imidazo[4,5-c]pyridin-2-yl}methanol], the Ki under setting [1] came out at 0.00285 µM. Turning to `CO[C@H]1CCN(c2nccc(Nc3cc4c(cn3)nc(CO)n4C(C)C)n2)C[C@@H]1F` (racemic) [Example 527, (±)-{6-[2-((trans)-3-Fluoro-4-methoxypiperidin-1-yl)pyrimidin-4-ylamino]-1-isopropyl-1H-imidazo[4,5-c]pyridin-2-yl}methanol], the Ki under setting [1] was 0.0542 µM. In the case of `COC1CCN(c2nccc(Nc3cc4c(cn3)nc(C)n4C(C)C)n2)CC1(F)F` (racemic) [Example 528, (±)-[2-(3,3-Difluoro-4-methoxypiperidin-1-yl)pyrimidin-4-yl](1-isopropyl-2-methyl-1H-imidazo[4,5-c]pyridin-6-yl)amine], the Ki under setting [1] was determined as 0.00588 µM. As for `Cc1nc2cnc(Nc3ccnc(N4CCCCC4C(F)(F)F)n3)cc2n1C(C)C` (racemic) [Example 530, (±)-(1-Isopropyl-2-methyl-1H-imidazo[4,5-c]pyridin-6-yl)[2-(2-trifluoromethyl-piperidin-1-yl)pyrimidin-4-yl]amine], under setting [1], the Ki was 0.092 µM. Consider `CC(C)n1c(CO)nc2cnc(Nc3ccnc(N4CCCCC4C(F)(F)F)n3)cc21` (racemic) [Example 531, (±)-{1-Isopropyl-6-[2-(2-trifluoromethylpiperidin-1-yl)pyrimidin-4-ylamino]-1H-imidazo[4,5-c]pyridin-2-yl}methanol], for which the Ki under setting [1] came to 0.148 µM. The same measure, in the same setting: the figure for `COC(C)c1nc2cnc(Nc3ccnc(-c4cnn(S(=O)(=O)C5CC5)c4)n3)cc2n1C(C)C` (racemic) [Example 566, (±)-[2-(1-Cyclopropanesulfonyl-1H-pyrazol-4-yl)pyrimidin-4-yl]-[1-isopropyl-2-(1-methoxy-ethyl)-1H-imidazo[4,5-c]pyridin-6-yl]amine] is 0.0119 µM.

Regarding `CC(C)n1c(C2CCO2)nc2cnc(Nc3ccnc(-c4cnn(S(=O)(=O)C5CC5)c4)n3)cc21` (racemic) [Example 570, (±)-[2-(1-Cyclopropanesulfonyl-1H-pyrazol-4-yl)pyrimidin-4-yl]-(1-isopropyl-2-oxetan-2-yl-1H-imidazo[4,5-c]pyridin-6-yl)amine], the Ki under setting [1] amounted to 0.00445 µM. Turning to `Cc1nc2cnc(Nc3ccnc(C4CCOC4)n3)cc2n1C(C)C` (racemic) [Example 576, (±)-(1-Isopropyl-2-methyl-1H-imidazo[4,5-c]pyridin-6-yl)-[2-(tetrahydrofuran-3-yl)pyrimidin-4-yl]amine], the Ki under setting [1] came to 0.611 µM. As to `Cc1nc2cnc(Nc3ccnc(N4CC[C@@H](S(C)(=O)=O)[C@H](F)C4)n3)cc2n1C(C)C` (racemic) [Example 616, [2-(±)-(trans-3-Fluoro-4-methanesulfonylpiperidin-1-yl)pyrimidin-4-yl]-(1-isopropyl-2-methyl-1H-imidazo[4,5-c]pyridin-6-yl)amine], the Ki under setting [1] came to 0.0601 µM.

As to `CS[C@H]1CCN(c2nccc(Nc3cc4c(cn3)nc(C)n4C(C)C)n2)C[C@H]1F` (racemic) [Example 617, [2-(±)-(cis-3-Fluoro-4-methylsulfanylpiperidin-1-yl)pyrimidin-4-yl]-(1-isopropyl-2-methyl-1H-imidazo[4,5-c]pyridin-6-yl)amine], under setting [1], the Ki amounted to 0.0143 µM. Turning to `Cc1nc2cnc(Nc3ccnc(N4CC[C@H]([S+](C)[O-])[C@H](F)C4)n3)cc2n1C(C)C` (mixture of isomers) [Example 618, [2-(±)-(cis-3-Fluoro-4-methanesulfinylpiperidin-1-yl)pyrimidin-4-yl]-(1-isopropyl-2-methyl-1H-imidazo[4,5-c]pyridin-6-yl)amine], the Ki under setting [1] was found to be 0.0344 µM. Regarding `CC(C)n1c(CO)nc2cnc(Nc3ccnc(N4CC[C@](C)(O)[C@H](F)C4)n3)cc21` (racemic) [Example 619, (3RS,4SR)-3-Fluoro-1-[4-(2-hydroxymethyl-1-isopropyl-1H-imidazo[4,5-c]pyridin-6-ylamino)pyrimidin-2-yl]-4-methylpiperidin-4-ol], the Ki under setting [1] came to 0.0302 µM. Turning to `CS[C@H]1CCN(c2nccc(Nc3cc4c(cn3)nc(CO)n4C(C)C)n2)C[C@H]1F` (racemic) [Example 622, (±)-{6-[2-(cis-3-Fluoro-4-methylsulfanylpiperidin-1-yl)pyrimidin-4-ylamino]-1-isopropyl-1H-imidazo[4,5-c]pyridin-2-yl}methanol], the Ki under setting [1] turned out to be 0.0184 µM. As to `CC(C)n1c(CO)nc2cnc(Nc3ccnc(N4CC[C@H](O)[C@H](C(F)(F)F)C4)n3)cc21` (racemic) [Example 626, (±)-(cis)-1-(4-(2-(Hydroxymethyl)-1-isopropyl-1H-imidazo[4,5-c]pyridin-6-ylamino)pyrimidin-2-yl)-3-(trifluoromethyl)piperidin-4-ol], the Ki under setting [1] amounted to 0.306 µM. Still for that read-out and setting: in the case of `CC(C)n1c(CO)nc2cnc(Nc3ccnc(N4CC[C@@H](O)[C@H](C(F)(F)F)C4)n3)cc21` (racemic) [Example 627, (±)-(trans)-1-(4-(2-(Hydroxymethyl)-1-isopropyl-1H-imidazo[4,5-c]pyridin-6-ylamino)pyrimidin-2-yl)-3-(trifluoromethyl)piperidin-4-ol] it was 0.7 µM; in that of `CO[C@H]1CCN(c2nccc(Nc3cc4c(cn3)nc(CO)n4C(C)C)n2)C[C@H]1C(F)(F)F` (racemic) [Example 628, (1-Isopropyl-6-(2-((±)-(cis)-4-methoxy-3-(trifluoromethyl)piperidin-1-yl)pyrimidin-4-ylamino)-1H-imidazo[4,5-c]pyridin-2-yl)methanol], 0.0817 µM. In the case of `CO[C@@H]1CCN(c2nccc(Nc3cc4c(cn3)nc(CO)n4C(C)C)n2)C[C@H]1C(F)(F)F` (racemic) [Example 629, (1-Isopropyl-6-(2-((±)-(trans)-4-methoxy-3-(trifluoromethyl)piperidin-1-yl)pyrimidin-4-ylamino)-1H-imidazo[4,5-c]pyridin-2-yl)methanol], the Ki under setting [1] came to 0.5 µM. `CC(C)n1c(CO)nc2cnc(Nc3ccnc(N4CC[C@@H](O)[C@H](C)C4)n3)cc21` (racemic) [Example 630, (±)-(trans)-1-(4-(2-(Hydroxymethyl)-1-isopropyl-1H-imidazo[4,5-c]pyridin-6-ylamino)pyrimidin-2-yl)-3-methylpiperidin-4-ol]: the Ki under setting [1] came to 0.0532 µM.

As for `CC(C)n1c(CO)nc2cnc(Nc3ccnc(N4CC[C@H](O)[C@H](C)C4)n3)cc21` (racemic) [Example 631, (±)-(cis)-1-(4-(2-(Hydroxymethyl)-1-isopropyl-1H-imidazo[4,5-c]pyridin-6-ylamino)pyrimidin-2-yl)-3-methylpiperidin-4-ol], the Ki under setting [1] worked out at 0.0767 µM. Regarding `CO[C@@H]1CCN(c2nccc(Nc3cc4c(cn3)nc(CO)n4C(C)C)n2)C[C@@H]1C` (racemic) [Example 632, (1-Isopropyl-6-(2-((±)-(cis)-4-methoxy-3-methylpiperidin-1-yl)pyrimidin-4-ylamino)-1H-imidazo[4,5-c]pyridin-2-yl)methanol], the Ki under setting [1] is 0.0295 µM. Turning to `CC(C)n1c(CO)nc2cnc(Nc3ccnc(N4CC[C@@](O)(C5CC5)[C@H](F)C4)n3)cc21` (racemic) [Example 633, (3RS,4RS)-4-cyclopropyl-3-fluoro-1-(4-((2-(hydroxymethyl)-1-isopropyl-1H-imidazo[4,5-c]pyridin-6-yl)amino)pyrimidin-2-yl)piperidin-4-ol], the Ki under setting [1] came out at 0.0767 µM.
